Source: PMC4657098, “A Review of the Updated Pharmacophore for the Alpha 5 GABA(A) Benzodiazepine Receptor Model” (International Journal of Medicinal Chemistry, 2015)

The chains behind the UniProt entries cited, without tags or fusion partners. Residues count along the entry.
UniProt P48169, 36-554 limits assumed: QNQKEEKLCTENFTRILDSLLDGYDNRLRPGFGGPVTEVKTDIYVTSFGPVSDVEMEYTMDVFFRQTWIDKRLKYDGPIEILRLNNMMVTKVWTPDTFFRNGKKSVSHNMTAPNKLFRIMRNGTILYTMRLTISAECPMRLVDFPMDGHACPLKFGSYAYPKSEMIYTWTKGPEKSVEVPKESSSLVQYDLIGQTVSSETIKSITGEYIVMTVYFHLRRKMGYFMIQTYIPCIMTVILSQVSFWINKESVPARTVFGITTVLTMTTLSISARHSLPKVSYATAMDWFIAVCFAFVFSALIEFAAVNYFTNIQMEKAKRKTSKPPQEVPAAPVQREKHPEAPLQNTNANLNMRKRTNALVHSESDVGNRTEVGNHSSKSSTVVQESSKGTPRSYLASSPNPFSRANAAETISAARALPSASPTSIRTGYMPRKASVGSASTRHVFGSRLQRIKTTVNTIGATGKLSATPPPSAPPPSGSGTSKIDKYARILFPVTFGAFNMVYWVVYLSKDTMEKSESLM

Key:
α1β3γ2 GABAA/BzR = α1β3γ2 GABAA/BzR (Homo sapiens, UniProt P14867+P18507); test: Competition binding to HEK cell membranes, α1β3γ2; conditions: read-out: Ki α1
α2β3γ2 GABAA/BzR = α2β3γ2 GABAA/BzR (Homo sapiens, UniProt P18507+P47869); test: Competition binding to HEK cell membranes, α2β3γ2; conditions: read-out: Ki α2
α3β3γ2 GABAA/BzR = α3β3γ2 GABAA/BzR (Homo sapiens, UniProt P18507+P34903); test: Competition binding to HEK cell membranes, α3β3γ2; conditions: read-out: Ki α3
α5β3γ2 GABAA/BzR = α5β3γ2 GABAA/BzR (Homo sapiens, UniProt P18507+P31644); test: Competition binding to HEK cell membranes, α5β3γ2; conditions: read-out: Ki α5
α6β3γ2 GABAA/BzR = α6β3γ2 GABAA/BzR (Homo sapiens, UniProt P18507+Q16445); test: Competition binding to HEK cell membranes, α6β3γ2; conditions: read-out: Ki α6
α4β3γ2 GABAA/BzR = α4β3γ2 GABAA/BzR (Homo sapiens, UniProt P18507+P48169); conditions: read-out: Ki α4

SMILES | Ki (α1β3γ2 GABAA/BzR) [nM] | Ki (α2β3γ2 GABAA/BzR) [nM] | Ki (α3β3γ2 GABAA/BzR) [nM] | Ki (α5β3γ2 GABAA/BzR) [nM] | Ki (α6β3γ2 GABAA/BzR) [nM] | Ki (α4β3γ2 GABAA/BzR) [nM]
C#Cc1ccc2c(c1)C(c1ccccc1)=NCc1c(C(=O)O)ncn1-2 | 50.4 | 11.8 | 44 | 5.9 |  | 
CCOC(=O)c1ncn2c1CN=C(c1ccccc1F)c1cc(Br)ccc1-2 [JYI-32] | 21.5 | 11 | 2.15 | 4.06 |  | 
CN1C(=O)CN=C(c2ccccc2Cl)c2cc(C#C[Si](C)(C)C)ccc21 | 1.51 | 0.967 |  | 1.99 |  | 
CN1Cc2c(C(=O)OC(C)(C)C)ncn2-c2ccc(Br)cc2C1=O | 11.2 |  |  |  |  | 
O=C(OCC(F)(F)F)c1cc2c(cn1)[nH]c1ccccc12 [MMB-II-74] | 0.88 | 36 | 25.6 | 549 | 15.3 | 
CCOC(=O)c1ncn2c1CN(C)C(=O)c1ccccc1-2 |  |  |  |  | 500 | 219
CCOC(=O)c1cc2c(cn1)[nH]c1ccc(OCc3ccccc3)cc12 | 7.2 | 168 | 284 |  | 10000 | 
CCOC(=O)c1ncn2c1[C@@H]1CCCN1C(=O)c1ccccc1-2 |  |  |  |  | 311 | 880
C#Cc1ccc2c(c1)C(c1ccccc1F)=NCc1c(C(=O)OCCCOC(=O)c3ncn4c3CN=C(c3ccccc3F)c3cc(C#C)ccc3-4)ncn1-2 | 32.5 | 1.26 | 2.35 | 103 |  | 
CN1Cc2c(C(=O)OC(C)(C)C)ncn2-c2ccc(N=C=S)cc2C1=O |  |  |  |  | 31.7 | 
C[Si](C)(C)C#Cc1ccc(-n2nc3c4ccccc4[nH]cc-3c2=O)cc1 | 3 |  |  |  | 1000 | 
CC(C)(C)C#Cc1ccc(-n2nc3c4ccccc4[nH]cc-3c2=O)cc1 | 9 | 60 | 39 | 90 | 1000 | 3230
CC(C)(C)OC(=O)c1cc2c3cc(C#C[Si](C)(C)C)ccc3n(C(=O)OC(C)(C)C)c2cn1 |  |  | 0.89 |  |  | 
CCOC(=O)c1ncn2c1CN(C)C(=O)c1c(Cl)cccc1-2 | 1.3 | 5.5 | 4.2 | 11.3 | 85.1 | 38.7
CC(C)(C)c1ccc2[nH]cc3c(=O)n(-c4ccc(Br)cc4)nc-3c2c1 | 4.7 | 4.4 | 20 | 89 | 3530 | 1880
CCOC(=O)c1ncn2c1CN(C)C(=O)c1cc(-c3ccccc3)ccc1-2 | 7 | 41 | 26 | 2.3 | 191 | 15
C#Cc1ccc2c(c1)C(c1ccccc1)=NCc1c(C(=O)NC)ncn1-2 | 36.4 | 67.8 | 130 | 7.59 |  | 
CCOC(=O)c1ncn2c1[C@@H]1CCCN1C(=O)c1cc(OC)ccc1-2 | 60.2 | 24.1 | 4.56 | 0.295 |  | 
CC[C@@H](OC(=O)c1ncn2c1[C@@H]1CCCN1C(=O)c1cc(Br)ccc1-2)C(F)(F)F | 176 | 752 | 244 | 14 | 141 | 290
C#Cc1ccc2c(c1)C(c1ccccc1)=NC(C)c1nnc(C)n1-2 (stereo not drawn) |  |  | 20.9 | 8.07 |  | 
C[Si](C)(C)C#Cc1ccc2c3nn(-c4ccccc4)c(=O)c-3c[nH]c2c1 | 1.7 | 1.8 | 1.6 | 6.1 | 100 | 
Cc1nnc2n1-c1ccc(C#C[Si](C)(C)C)cc1C(c1ccccc1)=NC2 | 222 | 154 |  | 15.5 |  | 
CCOC(=O)c1ncn2c1CN(C)C(=O)c1cc(OC)ccc1-2 | 4.86 | 13 | 8.5 | 0.55 | 40 | 
CCOC(=O)c1ncn2c1CN(C)C(=O)c1cc(-c3cccs3)ccc1-2 | 1.6 | 34 | 24 | 1.4 | 23 | 5.6
CC(C)(C)c1ccc2[nH]cc3c(=O)n(-c4ccc(Cl)cc4)nc-3c2c1 | 3.7 | 15 | 12 | 144 | 1000 | 1900
CCc1ccc2c(c1)C(=O)N(C)Cc1c(C(=O)OC(C)C)ncn1-2 |  | 56 |  |  |  | 
